## Measured vapor pressure values of organic chemicals

Data: OPERA 2.9 data sets, kmansouri/OPERA on GitHub.

Vapor pressure is log10 of mmHg; the set covers 15 to 30 °C, mostly 20 to 25 °C.
The databases behind each value are named after "via".

Listed for CC(C)COC(=O)c1ccccc1O [Isobutyl salicylate]: log vapor pressure -1.353 (log10 mmHg) (via eChemPortal).
Listed for C=C(C#N)C(=O)OCCCC [Butyl 2-cyanoacrylate]: log vapor pressure -0.011 (log10 mmHg) (via eChemPortal).
Listed for CCC1(O)CCCC1CCC(C)C (centres undefined) [Cyclopentanol, 1-ethyl-2-(3-methylbutyl)-]: log vapor pressure -0.248 (log10 mmHg) (via eChemPortal).
Listed for CCOCCOC(C)(C)C [Propane, 2-(2-ethoxyethoxy)-2-methyl-]: log vapor pressure 1.443 (log10 mmHg) (via eChemPortal).
Listed for Cc1cc(C(C)(C)C)c(O)c(C)c1Cn1c(=O)n(Cc2c(C)cc(C(C)(C)C)c(O)c2C)c(=O)n(Cc2c(C)cc(C(C)(C)C)c(O)c2C)c1=O [Cyanox CY 1790]: log vapor pressure -6.031 (log10 mmHg) (via eChemPortal).
Listed for CCCCCCCCCCCCC(Cl)CC (centres undefined) [3-Chloropentadecane]: log vapor pressure -3.455 (log10 mmHg) (via OCHEM).
Listed for CC(C)=CCCC(C)=CCCC=O [5,9-Dimethyl-4,8-decadienal]: log vapor pressure -1.779 (log10 mmHg) (via eChemPortal).
Listed for CCCCCCCCC(=O)OCC(COC(=O)CCCCCCCC)(COC(=O)CCCCCCCC)COC(=O)CCCCCCCC: log vapor pressure -5.292 (log10 mmHg) (via eChemPortal).
Listed for C[Si](NC1CCCCC1)(NC1CCCCC1)NC1CCCCC1 [N,N',N''-Tricyclohexyl-1-methylsilanetriamine]: log vapor pressure -2.846 (log10 mmHg) (via eChemPortal).
Listed for O=S1(=O)CS(=O)(=O)OCO1 [1,5,2,4-dioxadithiane 2,2,4,4-tetraoxide]: log vapor pressure -4.732 (log10 mmHg) (via eChemPortal).
Listed for CCOC(=O)c1cnn(C)c1S(=O)(=O)NC(=O)Nc1nc(OC)cc(OC)n1 [Pyrazosulfuron-ethyl]: log vapor pressure -6.959 (log10 mmHg) (via OCHEM).
Listed for C=CC(=O)OCCCCOC(=O)Oc1ccc(C(=O)c2ccccc2)cc1: log vapor pressure -4.508 (log10 mmHg) (via eChemPortal).
Listed for C=CCCc1ccc(-c2ccc(-c3ccc(CC)cc3)cc2F)cc1: log vapor pressure -9.335 (log10 mmHg) (via eChemPortal).
Listed for Cc1cc(O)c(C)c(C)c1O [2,3,5-Trimethylhydroquinone]: log vapor pressure -5.346 (log10 mmHg) (via eChemPortal).
Listed for Cc1ccc(S(=O)(=O)Cl)cc1 [p-Toluenesulfonyl chloride]: log vapor pressure -2.966 (log10 mmHg) (via PubChem, eChemPortal).
Listed for Cc1cn[nH]c1 [4-Methylpyrazole]: log vapor pressure -1.17 (log10 mmHg) (via eChemPortal).
Listed for C#CCOCc1ccc(Cl)cc1 [1-Chloro-4-[(2-propyn-1-yloxy)methyl]benzene]: log vapor pressure -1.871 (log10 mmHg) (via eChemPortal).
Listed for C=CC(=O)OCC(C)(COC(=O)C=C)N=C=O [1,1-Bis(acryloyloxymethyl)ethyl isocyanate]: log vapor pressure -2.824 (log10 mmHg) (via eChemPortal).
Listed for C#CC(C)(O)CCC=C(C)C (centres undefined) [Dehydrolinalool]: log vapor pressure -1.545 (log10 mmHg) (via eChemPortal).
Listed for Nc1cccc2c(N)cccc12 [1,5-Naphthalenediamine]: log vapor pressure -7.766 (log10 mmHg) (via PubChem, eChemPortal).
Listed for Cc1ccccc1S(N)(=O)=O [o-Toluenesulfonamide]: log vapor pressure -6.305 (log10 mmHg) (via eChemPortal).
Listed for CCCCCCCCCCCC[S+](CC)C(C)CC#N.F[B-](F)(F)F (centres undefined): log vapor pressure -5.157 (log10 mmHg) (via eChemPortal).
Listed for CC(=CCCC=O)CCCC(C)C: log vapor pressure -1.428 (log10 mmHg) (via eChemPortal).
Listed for CC(=O)OC[C@@H]1O[C@H](n2cc(C)c(=O)[nH]c2=O)C[C@H]1OC(C)=O: log vapor pressure -9.799 (log10 mmHg) (via eChemPortal).
Listed for CCC=C(C)C=O [2-Methylpent-2-enal]: log vapor pressure 0.827 (log10 mmHg) (via eChemPortal).
Listed for CC(CCO)CCc1ccccc1 (centres undefined) [3-Methyl-5-phenylpentan-1-ol]: log vapor pressure -3.523 (log10 mmHg) (via eChemPortal).
Listed for CCCCCCCCN1CCCC1=O [1-Octyl-2-pyrrolidone]: log vapor pressure -3.222 (log10 mmHg) (via eChemPortal).
Listed for COS(=O)(=O)[O-].Cc1ccc(N(C)/N=C/C2=[N+](C)c3ccccc3C2(C)C)cc1: log vapor pressure -6.76 (log10 mmHg) (via eChemPortal).
Listed for CCCCC(CC)COCC(O)COc1ccc(-c2nc(-c3ccc(C)cc3C)nc(-c3ccc(C)cc3C)n2)c(O)c1 (centres undefined): log vapor pressure -11.89 (log10 mmHg) (via eChemPortal).
Listed for COC(=O)COc1nc(F)c(Cl)c(N)c1Cl: log vapor pressure -6.056 (log10 mmHg) (via eChemPortal).
Listed for COC(=O)C1CCC(C(=O)OC)CC1 (centres undefined) [Dimethyl cyclohexane-1,4-dicarboxylate]: log vapor pressure -1.767 (log10 mmHg) (via eChemPortal).
Listed for CC1OCC(c2ccccc2)O1 (centres undefined) [1,3-Dioxolane, 2-methyl-4-phenyl-]: log vapor pressure -0.144 (log10 mmHg) (via eChemPortal).
Listed for CCCCCCCCCCCCCCCCCCOC(=O)CCS [Propanoic acid, 3-mercapto-, octadecyl ester]: log vapor pressure -6.904 (log10 mmHg) (via eChemPortal).
Listed for CC(=O)c1ccncc1 [4-Acetylpyridine]: log vapor pressure 0.69 (log10 mmHg) (via PubChem).
Listed for CCCCCC1CCC(C2CC=C(c3ccc(OCC)c(F)c3F)CC2)CC1 (centres undefined): log vapor pressure -8.078 (log10 mmHg) (via eChemPortal).
Listed for CC(C)(N=NC(C)(C)C(=N)N)C(=N)N.Cl.Cl [2,2'-Azobis(2-amidinopropane) dihydrochloride]: log vapor pressure -7.201 (log10 mmHg) (via eChemPortal).
Listed for O=[N+]([O-])c1ccccc1-c1ccc(Cl)cc1 [4'-Chloro-2-nitrobiphenyl]: log vapor pressure -4.846 (log10 mmHg) (via eChemPortal).
Listed for CC(C)O.COc1cc(NC(=O)/C(C#N)=C\Nc2ccc(OC)c(OCCCN3CCN(C)CC3)c2)c(Cl)cc1Cl.COc1cc(NC(=O)/C(C#N)=C\Nc2ccc(OC)c(OCCCN3CCN(C)CC3)c2)c(Cl)cc1Cl: log vapor pressure -11.35 (log10 mmHg) (via eChemPortal).
Listed for OB(O)c1cccc(F)c1 [3-Fluorophenylboronic acid]: log vapor pressure -8.259 (log10 mmHg) (via eChemPortal).
Listed for Cc1cc(C)nc(N)n1 [2-Amino-4,6-dimethylpyrimidine]: log vapor pressure -1.699 (log10 mmHg) (via OCHEM).
Listed for Cc1ccc(C)o1 [2,5-Dimethylfuran]: log vapor pressure 1.724 (log10 mmHg) (via PubChem).
Listed for N#Cc1ccccc1N=C(O)c1snc(Cl)c1Cl [Isotianil]: log vapor pressure -8.752 (log10 mmHg) (via eChemPortal).
Listed for CCOc1ccc(C2(C(=O)OC(C#N)c3cccc(Oc4ccccc4)c3)CC2(Cl)Cl)cc1 (centres undefined) [Cycloprothrin]: log vapor pressure -7.797 (log10 mmHg) (via OCHEM).
Listed for CCCCCCOC(=O)c1ccccc1C(=O)c1ccc(N(CC)CC)cc1O [Diethylamino hydroxybenzoyl hexyl benzoate]: log vapor pressure -7.663 (log10 mmHg) (via eChemPortal).
Listed for NC12CC3CC(CC(C3)C1)C2 [Amantadine]: log vapor pressure 0.958 (log10 mmHg) (via eChemPortal).
Listed for COc1ccc(Cl)cc1P(c1cc(Cl)ccc1OC)c1cc(Cl)ccc1OC [Tris(5-chloro-2-methoxyphenyl)phosphine]: log vapor pressure -11.53 (log10 mmHg) (via eChemPortal).
Listed for O=C1CC/C=C\CCCCCCCCCC1 [(4Z)-Cyclopentadec-4-en-1-one]: log vapor pressure -2.929 (log10 mmHg) (via eChemPortal).
Listed for COc1ccc(S(=O)(=O)CCOS(=O)(=O)[O-])cc1/N=N/c1c(S(=O)(=O)[O-])cc2cc(S(=O)(=O)[O-])c(/N=N/c3ccc(S(=O)(=O)CCOS(=O)(=O)[O-])cc3)c(N)c2c1O.[Na+].[Na+].[Na+].[Na+] [C.I. Reactive Blue 250]: log vapor pressure -8.988 (log10 mmHg) (via eChemPortal).
Listed for CCCCCCCCCCCCCCCCCC[N+](C)(C)C.[Cl-] [N,N,N-Trimethyloctadecan-1-aminium chloride]: log vapor pressure -7.932 (log10 mmHg) (via eChemPortal).

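These are experimental values that the OPERA curators gathered from public databases to train and test their QSAR models. A listed value is a point estimate from one report or more. Method and conditions are not stated for these values. The measured form (salt, isomer or mixture) is not always the one drawn. Some upstream entries may be estimates or bounds without being marked so.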